Test system: MDA-231 GFP cells
Assay: Cell migration (scratch wound) assay, MDA-231
Format: cell-based
Settings: 33 μM, 4 and 8 hours, normoxic and anoxic conditions, FIG. 6

`Cc1cc(C)cc(NC(=O)Nc2ccc(OS(N)(=O)=O)cc2)c1` [Compound 3p, 4-[(3,5-dimethylphenyl)ureido]phenyl sulfamate] was tested, and the “gap closure (cell migration) versus control” value was “significantly inhibits cell migration”.

Reference: patent US20130053392A1, “CARBONIC ANHYDRASE INHIBITORS” (priority 2010, published 2013)
